The list shows a part of the results, in another mix than the full data. Activity calls are given as the source filed them. Rule as the data show it: active = activity change below about -80%; inconclusive = mostly about -51% to -80%; inactive = weaker than that.
Each compound was assayed against RAC-alpha serine/threonine-protein kinase (Homo sapiens) (UniProt P31749) (assay: HTS Assay for Inhibitors of Akt Phophorylation: Primary Screen). Settings: Neuro2A IGF-stimulated pAkt S473 HTRF, 20 min; at 50 µM; active compounds read low.
Excerpt: The serine/threonine protein kinase Akt (protein kinase B) regulates various cellular processes, including cell survival, growth, proliferation, migration and differentiation. It has been well established that Akt is activated through two essential steps involving membrane translocation and phosphorylation. Cytosolic Akt is recruited to the plasma membrane via the interaction between the PH domain and membrane PIP3 produced by phosphoinositide-3 kinase (PI3K) upon growth factor receptor stimulation. The membrane-Akt interaction results in conformational changes of Akt, enabling its activation through phosphorylation at T308 in the kinase domain and at S473 in the C-terminal hydrophobic motif by PDK1 and mTOR-rictor complex (mTORC2), respectively. […] These findings indicate that S473 phosphorylation, as an important modulator of Akt activation, may be a valuable drug target for cell growth, survival, proliferation and differentiation. These inhibitors also may have significant therapeutic potential with fewer side effects, especially for the conditions involving hyperactive Akt signaling, such as cancer and Alzheimer's disease.
To this end, a miniaturized assay was developed to be screened against the Molecular Libraries Small Molecule Repository (MLSMR).
NIH Chemical Genomics Center [NCGC]
NIH Molecular Libraries Probe Centers Network [MLPCN]
Assay Submitter (PI): Hee-Yong Kim, National Institute on Alcohol Abuse and Alcoholism
3 uL of Neuro2A cell suspension in DMEM containing 0.5% FBS and […] antibiotics mix was plated in a white solid bottom tissue culture-treated 1536-well plate (Greiner Bio-One, Monroe, NC) at 4,500 cells per well and incubated overnight at 37 deg C. 23 nL/well of compound solutions in DMSO was added with Pintool transfer (Kalypsis, San Diego, CA) at single […] final concentration. Then, the cells were stimulated with 1.5 uL of IGF (6 nM final concentration) and incubated at 37 deg C for 20 min. The reaction was terminated by the addition of 1.5 uL blocking reagent mixed with lysis buffer (1:25 correspondingly) provided with HTRF(R) Phospho Akt (Ser473) kit (Cisbio US, Bedford, MA), with following incubation for 50 min at ambient temperature. The detection HTRF conjugates from the kit were prepared according to the protocol, pre-mixed 1:1 prior to dispensing, and 2 uL/well was added with BioRAPTR FRD dispenser (Beckman Coulter). The assay plates were incubated for 24 hours at ambient temperature, and the HTRF fluorescence was measured using Envision plate reader (PerkinElmer) with excitation at 330nm, emission at 615nm (Eu(3)-Cryptate donor signal) and 665nm (d2 acceptor signal). The ratio of […] was calculated for each well.
For COC(=O)c1cc2c(s1)N=C(c1ccccc1)N(C)P2(=O)N1CCOCC1 (stereo not given), the activity change was inactive: 7.95%. CCC(=O)N1C2C3N(C(=O)CC)C1C1N(C(=O)CC)C(C(N1C(=O)CC)N3C(=O)CC)N2C(=O)CC was tested, and the activity change was inactive: -1.69%. CC(=O)N1C2C3N(C(C)=O)C1C1N(C(C)=O)C(C(N1C(C)=O)N3C(C)=O)N2C(C)=O was tested, and the activity change was inactive: -2.06%. For CC1CCN(C(=O)Oc2c(Cl)cc(Cl)c3cccnc23)CC1, the activity change was active: -108%. In the case of CCOP(=O)(Nc1ccccc1)OCC, the activity change is reported as inactive: -4.72%. With CCN(CC)C(=S)SC(NC=O)C(Cl)(Cl)Cl (stereo not given) the activity change was inactive: 2%. In the case of ClCCSc1nnc(-c2cccnc2)o1, the activity change is reported as inactive: 6.29%. In the case of CCC(C)N(CC(C)C)C(=S)SC(NC(C)=O)C(Cl)(Cl)Cl (stereo not given), the activity change is reported as inactive: 0.187%. CC1(CBr)Cn2c(nc3ccccc3c2=O)S1 (stereo not given) was tested, and the activity change was inactive: -5.19%. In the case of O=[N+]([O-])c1ccc2c(c1)nnn2O, the activity change is reported as inactive: 7.94%.

Reference: PubChem BioAssay AID651550 (National Center for Advancing Translational Sciences (NCATS), 2012)
% is scaled to controls: 0 for no effect and ±100 for the full control effect.
